PMC11790914, “Chemogenomics for steroid hormone receptors (NR3)” (Communications Chemistry, 2025)
Where “and” joins values, the source holds several entries; their conditions need not be identical. Equal values may be shown once. Read-outs that look alike come from different tables or passages of the source.

The chains behind the UniProt entries cited, without tags or fusion partners.
UniProt P48730, whole entry, species assumed: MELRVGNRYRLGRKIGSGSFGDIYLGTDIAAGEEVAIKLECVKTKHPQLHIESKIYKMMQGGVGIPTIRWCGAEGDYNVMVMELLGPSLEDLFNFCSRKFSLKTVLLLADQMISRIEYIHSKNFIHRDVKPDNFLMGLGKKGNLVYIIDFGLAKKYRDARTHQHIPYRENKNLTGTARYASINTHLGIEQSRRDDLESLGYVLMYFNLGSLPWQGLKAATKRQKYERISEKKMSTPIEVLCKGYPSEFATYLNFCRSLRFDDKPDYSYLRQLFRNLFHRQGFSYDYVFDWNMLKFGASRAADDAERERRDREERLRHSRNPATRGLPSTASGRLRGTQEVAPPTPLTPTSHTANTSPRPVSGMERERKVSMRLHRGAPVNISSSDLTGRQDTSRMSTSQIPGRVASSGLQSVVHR

Tests used:
Gal4-VP16 = format: cell-based; conditions: vs. DMSO ctrl, single replicates n=1-3
TRIM24 = target: T1, TRIM24 (Homo sapiens, UniProt O15164); assay: Liability panel screening by DSF: TRIM24; format: binding; conditions: n=2
T1 construct: This panel comprised ten highly ligandable kinases and bromodomains; made in house
T1 sequence (O15164 899-1004 limits assumed): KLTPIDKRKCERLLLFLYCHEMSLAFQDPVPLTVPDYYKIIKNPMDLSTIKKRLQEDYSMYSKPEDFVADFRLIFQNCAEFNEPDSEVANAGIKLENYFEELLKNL

CSNK1D = target: T2, CSNK1D (Homo sapiens, UniProt P48730); assay: Liability panel screening by DSF: CSNK1D; format: binding; conditions: read-out: Mean ΔTM CSNK1D
T2 construct: made in house

[1] = tested on: NF-κB activity in HEK293 NF-κB reporter cells; assay: NF-kB activity assay (GFP reporter, ionomycin/PMA); format: cell-based; conditions: compounds at recommended concentrations, imaged over 24 h, n = 3
[2] = tested on: ATF6 activity in Hela ATF6 reporter cells; assay: Endoplasmic reticulum stress assay (ATF6 Renilla luciferase reporter, tunicamycin); format: cell-based; conditions: Homo sapiens, single replicates n=1 to n=5, read-out: ER stress [rel. ATF6 activity]

## C[C@]12CCC(=O)C=C1CC[C@@H]1[C@@H]2[C@@H](O)C[C@]2(C=O)[C@@H](C(=O)CO)CC[C@@H]12 [Aldosterone]
Gal4-VP16; 1 µM
  VP16 control [fold reporter gene activity]: 1.02 fold reporter gene activity and 1.01 fold reporter gene activity and 1.14 fold reporter gene activity

## C[C@]12CC[C@@H]3c4ccc(O)cc4C[C@@H](CCCCCCCCC[S+]([O-])CCCC(F)(F)C(F)(F)F)[C@H]3[C@@H]1CC[C@@H]2O (some centres unmarked) [Fulvestrant]
TRIM24
  ΔTm at 20 µM: 1.64 °C

## CC(C)(c1ccc(O)cc1)c1ccc(O)cc1 [Bisphenol A]
CSNK1D
  ΔTm at 20 µM: 0.55 °C
Gal4-VP16; 0.3 µM
  VP16 control [fold reporter gene activity]: 1.17 fold reporter gene activity and 1.15 fold reporter gene activity and 1.13 fold reporter gene activity

## C[C@]1(O)CC[C@H]2[C@@H]3CCC4=CC(=O)CCC4=C3C=C[C@@]21C [Methyltrienolone]
Gal4-VP16; 1 µM
  VP16 control [fold reporter gene activity]: 1.17 fold reporter gene activity and 0.94 fold reporter gene activity and 1.19 fold reporter gene activity

## Cc1c(N2C(=O)C3C(O)CCN3C2=O)ccc(C#N)c1Cl (centres unmarked) [BMS564929]
[1]
  NF-κB activity (inflammatory response to ionomycin/PMA): anti-inflammatory effect
Gal4-VP16; 1 µM
  VP16 control [fold reporter gene activity]: 1.20 fold reporter gene activity and 1.05 fold reporter gene activity and 1.29 fold reporter gene activity
[2]
  activity at 1 µM: 77%
